Values of other authors in US20060293323A1, “Therapeutic Combinations of erb B Kinase Inhibitors and Antineoplastic Therapies” (priority 2002, published 2006).
Read-outs that look alike come from different tables or passages of the source.

Assays:
[1] = tested on: variety of human tumor cell lines; conditions: cited from earlier work
[2] = tested on: BT-474 human breast carcinoma; conditions: cited from earlier work
253JB-V human bladder = conditions: grown orthotopically in athymic nude mice; cited from earlier work
[3] = cited from earlier work

Substance | effect on activity of paclitaxel in vitro [1] | effect on activity of paclitaxel in vivo [2] | effect on antitumor effects of paclitaxel (253JB-V human bladder) | antitumor activity of combination with topotecan ([3]; C225 given first) | antitumor activity of combination with topotecan ([3]; topotecan first, antibody one day later) | antitumor activity of combination with topotecan ([3]; two drugs given simultaneously)
Herceptin: monoclonal antibody which specifically neutralizes erbB-2 | enhanced the activity of paclitaxel | enhanced the activity of paclitaxel | – | – | – | –
C-225: monoclonal antibody directed against the EGF receptor | – | – | enhance the antitumor effects of paclitaxel | markedly suppressed | greatest effect | Activity was less
